Earlier results, collected in patent publication US5849736A, “Isoxazoline and isoxazole fibrinogen receptor antagonists” (The DuPont Merck Pharmaceutical Company, priority 1995, dated 1998).

Conditions: intranasal; Anik et al. J. Pharm. Sci. 73: 684-685 (1984); cited from earlier work

For nafarelin acetate, the nasal bioavailability is listed as ~ 2%.
